# The list shows a part of the results, in another mix than the full data. Calls of active or inactive are those of the source. No stated cut-off is given here; in the data, active means activation above about 30% (passing the limit was not always enough); inconclusive means no clear call, values can overlap the other calls.
# Assay: activation of beta-catenin signaling reporter – cell-based, plate reader, single point, primary screen (AID 743398);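 further: 0% = neutral control wells and 100% = positive control wells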
# Settings: Wnt/beta-catenin reporter cell assay, activator, at 9.35 µM, active compounds read high
row,Structure (SMILES),activation
1,O=C(NCC1(N2CCCCC2)CCCCC1)c1cccc(C(F)(F)F)c1,inactive: -0.267%
2,COc1cc(C(=O)NCC2(N3CCCCC3)CCCCC2)ccc1OC(F)F,inactive: -1.92%
3,O=C(NCC1(N2CCOCC2)CCCCC1)c1cc(=O)[nH]c2ccccc12,inactive: -2.83%
4,CN1CCN(CCOC(=O)C(O)(c2ccccc2)c2ccccc2)CC1,inactive: -0.877%
5,COc1ccc(NC2CCN(C(=O)OC(C)(C)C)CC2)cc1,inactive: -1.09%
6,CC(C)c1ccc(C(=O)NCC2(N3CCOCC3)CCCCC2)cc1,inactive: 0%
7,CCCCn1nnnc1C(c1cccc2ccccc12)N1CCC(n2c(=O)[nH]c3ccccc32)CC1 (configuration not stated),inactive: -1.59%
8,CC(C)(C)n1nnnc1C(c1ccccc1OC(F)(F)F)N1CCC(n2c(=O)[nH]c3ccccc32)CC1 (configuration not stated),inactive: -2.8%
9,O=C(NCC1(N2CCCCC2)CCCCC1)c1ccc(OC(F)F)cc1,inactive: 4.91%
10,CCN1CCC(Nc2ccc(Cl)cc2)CC1,inactive: -0.374%
11,O=c1[nH]c2ccccc2n1C1CCN(C(c2ccccc2OC(F)(F)F)c2nnnn2C2CCCC2)CC1 (configuration not stated),inactive: -2.64%
12,O=C(NCC1(N2CCCCC2)CCCCC1)c1cccc([N+](=O)[O-])c1,inactive: -0.364%
13,CSc1ccc(C(=O)NCC2(N3CCOCC3)CCCCC2)cc1,inactive: 1.69%
14,CN1CCC(Nc2cccc(F)c2)CC1,inactive: 0.528%
15,O=C(NCC1(N2CCCCC2)CCCCC1)c1cncc(Br)c1,inactive: -1.06%
16,COc1ccc(C(c2nnnn2C2CCCC2)N2CCC(n3c(=O)[nH]c4ccccc43)CC2)cc1 (configuration not stated),inactive: -1.14%
17,Cc1ccc(C(=O)NCC2(N(C)C)CCCCC2)o1,inactive: -1.85%
18,CCCOc1ccc(C(=O)NCC2(N(C)C)CCCCC2)cc1OC,inactive: 0.927%
19,CC(C)c1ccc(NC2CCN(C(=O)OC(C)(C)C)CC2)cc1,inactive: 9.7%
20,COc1ccc(CN(CCCl)CCCl)cc1Cl,inactive: -0.789%
21,CN(C)c1cccc(C(=O)NCC2(N3CCCCC3)CCCCC2)c1,inactive: 0.588%
22,COc1cc(OC)c(C(=O)NCC2(N(C)C)CCCCC2)cc1OC,inactive: -0.453%
23,CCC(c1nnnn1C(C)(C)C)N1CCC(n2c(=O)[nH]c3ccccc32)CC1 (configuration not stated),inactive: -1.47%
24,O=C(NCC1(N2CCOCC2)CCCCC1)c1cc(F)c(F)cc1Cl,inactive: -4.02%
25,CCCCn1nnnc1C(c1ccnc2ccccc12)N1CCC(n2c(=O)[nH]c3ccccc32)CC1 (configuration not stated),inactive: -1.83%
26,O=C(NCC1(N2CCCCC2)CCCCC1)c1ccc(Cl)nc1,inactive: -1.2%

row,Structure (SMILES),activation
1,O=c1[nH]c2ccccc2n1C1CCN(C(c2ccccc2OC(F)(F)F)c2nnnn2C2CCCCC2)CC1 (configuration not stated),inactive: -4.54%
2,Cc1cc(C)cc(N(C(=O)c2ccccc2)C2CCN(C(=O)OC(C)(C)C)CC2)c1,inactive: -1.83%
3,O=C(NCC1(N2CCCCC2)CCCCC1)c1ccc(Cl)s1,inactive: -1.76%
4,N#CC1(Nc2ccccc2)CCN(Cc2ccccc2)CC1,inactive: 18.4%
5,O=C(OC1CN2CCC1CC2)C1c2ccccc2Oc2ccccc21 (configuration not stated),inactive: 1.36%
6,O=c1[nH]c2ccccc2n1C1CCN(C(c2cc3ccccc3o2)c2nnnn2C2CCCCC2)CC1 (configuration not stated),inactive: -3.62%
7,COc1ccc(Cl)cc1C(=O)NCC1(N2CCOCC2)CCCCC1,inactive: -1.09%
8,CCOC(=O)N1CCC(Nc2ccc(OC)cc2)CC1,inactive: -9.5%
9,CCCCn1nnnc1C(c1ccc(OC)cc1)N1CCC(n2c(=O)[nH]c3ccccc32)CC1 (configuration not stated),inactive: 0.762%
10,COc1ccc(C(=O)NCC2(N3CCCCC3)CCCCC2)cc1,inactive: -0.752%
11,COc1ccc(C(=O)NCC2(N3CCCCC3)CCCCC2)c(OC)c1OC,inactive: -0.339%
12,CC(C)(C)OC(=O)N1CCC(N(C(=O)c2ccccc2)c2ccc(F)cc2)CC1,inactive: -0.57%
13,CCC(c1nnnn1C1CCCC1)N1CCC(n2c(=O)[nH]c3ccccc32)CC1 (configuration not stated),inactive: -0.278%
14,O=C(NCC1(N2CCCCC2)CCCCC1)c1ccc(=O)[nH]c1,inactive: -0.966%
15,CCCCn1nnnc1C(CC)N1CCC(n2c(=O)[nH]c3ccccc32)CC1 (configuration not stated),inactive: -4.2%
16,O=C(NCC1(N2CCCCC2)CCCCC1)c1cccs1,inactive: -1.27%
17,CCCCn1nnnc1C(c1cccs1)N1CCC(n2c(=O)[nH]c3ccccc32)CC1 (configuration not stated),inactive: -1.3%
18,CSc1ccccc1C(=O)NCC1(N2CCCCC2)CCCCC1,inactive: -2.31%
19,Cc1cccc(NC2(C#N)CCN(Cc3ccccc3)CC2)c1,inactive: -1.24%
20,O=c1[nH]c2ccccc2n1C1CCN(C(c2ccccc2)c2nnnn2C2CCCCC2)CC1 (configuration not stated),inactive: -2.77%
21,CCOC(=O)N1CCC(Nc2cccc(C)c2)CC1,inactive: -0.123%
22,COc1cc(C(=O)NCC2(N(C)C)CCCCC2)ccc1OC(F)F,inactive: -2.49%
23,O=c1[nH]c2ccccc2n1C1CCN(C(c2cccc3ccccc23)c2nnnn2C2CCCC2)CC1 (configuration not stated),inactive: -1.8%
24,CC(C)(C)n1nnnc1C(c1ccccc1)N1CCC(n2c(=O)[nH]c3ccccc32)CC1 (configuration not stated),inactive: -1.59%
25,O=C1CCN(Cc2ccccc2)CC1,inactive: -0.623%
26,CCOc1ccc(C)cc1CN(CCCl)CCCl,inactive: -3.69%

row,Structure (SMILES),activation
1,CCCCn1nnnc1C(c1cc2ccccc2o1)N1CCC(n2c(=O)[nH]c3ccccc32)CC1 (configuration not stated),inactive: -3.88%
2,O=P1(N(CCCl)CCCl)SCCCS1,inactive: -1.16%
3,CCCCOc1ccc(C(=O)NCC2(N3CCOCC3)CCCCC2)cc1,inactive: 0.62%
4,O=C(NCC1(N2CCCCC2)CCCCC1)c1ccc(F)cc1,inactive: -2.39%
5,CCOC(=O)N1CCC(Nc2ccc(F)cc2)CC1,inactive: -1.16%
6,Cc1ccccc1NC1(C#N)CCN(Cc2ccccc2)CC1,inactive: -3.22%
7,COc1ccc(C(c2nnnn2C2CCCCC2)N2CCC(n3c(=O)[nH]c4ccccc43)CC2)cc1 (configuration not stated),inactive: 2.27%
8,CCN1CCC(Nc2cccc(F)c2)CC1,inactive: -0.798%
9,CC(C)(C)n1nnnc1C(c1ccnc2ccccc12)N1CCC(n2c(=O)[nH]c3ccccc32)CC1 (configuration not stated),inactive: -1.22%
10,O=C(NCC1(N2CCCCC2)CCCCC1)c1ccco1,inactive: -1.84%
11,CN(C)c1ccc(C(=O)NCC2(N3CCCCC3)CCCCC2)cc1,inactive: -0.563%
12,Cn1c(=O)[nH]cc(N(CCCl)CCCl)c1=O,inactive: -3.69%
13,COc1cccc(C(c2nnnn2C2CCCCC2)N2CCC(n3c(=O)[nH]c4ccccc43)CC2)c1OC (configuration not stated),inactive: -6.56%
14,CC(=O)N(c1ccccc1)C1CCNCC1,inactive: -0.914%
15,CCC(c1nnnn1C1CCCCC1)N1CCC(n2c(=O)[nH]c3ccccc32)CC1 (configuration not stated),inactive: -0.583%
16,COc1cc(OC)cc(C(=O)NCC2(N3CCCCC3)CCCCC2)c1,inactive: -0.237%
17,O=c1[nH]c2ccccc2n1C1CCN(C(c2ccnc3ccccc23)c2nnnn2C2CCCCC2)CC1 (configuration not stated),inactive: -0.723%
18,Cc1ccc(C(=O)NCC2(N3CCCCC3)CCCCC2)o1,inactive: 0.266%
19,Fc1ccccc1NC1CCN(Cc2ccccc2)CC1,inactive: -0.986%
20,Cc1ccc(NC2(C#N)CCN(Cc3ccccc3)CC2)cc1,inactive: -0.768%
21,COc1cc(OC)cc(C(=O)NCC2(N3CCOCC3)CCCCC2)c1,inactive: -1.9%
22,COc1cccc(C(c2nnnn2C2CCCC2)N2CCC(n3c(=O)[nH]c4ccccc43)CC2)c1OC (configuration not stated),inactive: -2.8%
23,COc1cccc(C(=O)N(c2cc(C)cc(C)c2)C2CCN(C(=O)OC(C)(C)C)CC2)c1,inactive: -0.872%
24,CN1CCC(Nc2ccc(Cl)cc2)CC1,inactive: 0.209%
25,CCOc1ncccc1C(=O)NCC1(N2CCOCC2)CCCCC1,inactive: -2.53%
26,CN1CCC(Nc2ccc(F)c(Cl)c2)CC1,inactive: -0.462%

row,Structure (SMILES),activation
1,CC(C)(C)OC(=O)N1CCC(Nc2ccccc2)CC1,inactive: -1.89%
2,O=C(O)C1(Nc2ccccc2)CCN(Cc2ccccc2)CC1,inactive: -0.141%
3,NN(c1ccccc1)C1CCN(CCc2ccccc2)CC1,inactive: -0.619%
4,O=c1[nH]c2ccccc2n1C1CCN(C(c2cc3ccccc3o2)c2nnnn2C2CCCC2)CC1 (configuration not stated),inactive: 1.19%
5,CCCOc1ccc(C(=O)NCC2(N(C)C)CCCCC2)cc1,inactive: 0.184%
6,CCOC(=O)N1CCC(Nc2ccc(C)cc2)CC1,inactive: 0.627%
7,COc1cccc(C(c2nnnn2C(C)(C)C)N2CCC(n3c(=O)[nH]c4ccccc43)CC2)c1OC (configuration not stated),inactive: -5.38%
8,O=c1[nH]c2ccccc2n1C1CCN(C(c2cccs2)c2nnnn2C2CCCC2)CC1 (configuration not stated),inactive: -1.91%
9,CCCCn1nnnc1C(c1cccc(OC)c1OC)N1CCC(n2c(=O)[nH]c3ccccc32)CC1 (configuration not stated),inactive: -3.96%
10,CCCCn1nnnc1C(c1ccccc1)N1CCC(n2c(=O)[nH]c3ccccc32)CC1 (configuration not stated),inactive: -1.48%
11,COc1cc(C(=O)NCC2(N3CCOCC3)CCCCC2)cc(OC)c1C,inactive: -1.99%
12,O=C(NCC1(N2CCOCC2)CCCCC1)c1cc(Br)ccc1Cl,inactive: 2.28%
13,O=c1[nH]c2ccccc2n1C1CCN(C(c2cccs2)c2nnnn2C2CCCCC2)CC1 (configuration not stated),inactive: -1.71%
14,COc1ccc(C(=O)NCC2(N3CCOCC3)CCCCC2)cc1OC,inactive: -1.55%
15,O=c1[nH]c2ccccc2n1C1CCN(C(c2ccnc3ccccc23)c2nnnn2C2CCCC2)CC1 (configuration not stated),inactive: -2.65%
16,CN(C)C1(CNC(=O)c2cccc(C#N)c2)CCCCC1,inactive: -0.799%
17,C/C(N)=N\P(=O)(Oc1ccccc1)Oc1ccccc1,inactive: -1.34%
18,c1ccc(CN2CCC(Nc3ccccc3)CC2)cc1,inactive: -0.0495%
19,CCCN1CCC(Nc2cc(OC)cc(OC)c2)CC1,inactive: 0.881%
20,O=c1[nH]c2ccccc2n1C1CCN(C(c2ccccc2)c2nnnn2C2CCCC2)CC1 (configuration not stated),inactive: -1.66%
21,Cc1cc(N(CCCl)CCCl)ccc1C=O,inactive: 1.49%
22,CC(C)(C)n1nnnc1C(c1cccc2ccccc12)N1CCC(n2c(=O)[nH]c3ccccc32)CC1 (configuration not stated),inactive: -4.41%
23,N#Cc1ccc(C(=O)NCC2(N3CCCCC3)CCCCC2)cc1,inactive: -0.234%
24,CC(C)(C)OC(=O)N1CCC(N(C(=O)c2ccccc2)c2ccc(Cl)cc2)CC1,inactive: -0.52%
